Laboratory results: ChEMBL document CHEMBL2073864, “Transport of glyburide by placental ABC transporters: implications in fetal drug exposure” (Placenta, 2006)

Sequences of proteins named here, by UniProt entry; tags and fusion partners are left off. A change or cut given only in a name is not applied to a line headed by its entry.
UniProt Q9UNQ0: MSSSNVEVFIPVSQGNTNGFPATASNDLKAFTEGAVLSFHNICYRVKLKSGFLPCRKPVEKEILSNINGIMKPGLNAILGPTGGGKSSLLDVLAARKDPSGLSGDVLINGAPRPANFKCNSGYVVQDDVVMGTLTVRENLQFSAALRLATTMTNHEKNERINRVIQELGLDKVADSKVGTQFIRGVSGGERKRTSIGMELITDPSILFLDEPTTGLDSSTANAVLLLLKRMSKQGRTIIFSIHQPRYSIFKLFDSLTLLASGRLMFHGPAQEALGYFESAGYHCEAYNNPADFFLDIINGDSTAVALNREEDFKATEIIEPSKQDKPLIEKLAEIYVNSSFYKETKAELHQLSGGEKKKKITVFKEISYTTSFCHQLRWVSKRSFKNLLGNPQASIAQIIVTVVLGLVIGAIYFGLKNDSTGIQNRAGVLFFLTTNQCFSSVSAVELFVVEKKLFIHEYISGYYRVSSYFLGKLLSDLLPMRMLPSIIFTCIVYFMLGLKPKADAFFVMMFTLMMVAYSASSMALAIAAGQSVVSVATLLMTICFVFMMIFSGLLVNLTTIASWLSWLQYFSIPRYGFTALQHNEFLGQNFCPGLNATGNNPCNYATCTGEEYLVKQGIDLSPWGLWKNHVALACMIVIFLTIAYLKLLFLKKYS

Molecular target: Broad substrate specificity ATP-binding cassette transporter ABCG2 (Homo sapiens, UniProt Q9UNQ0)
Assay: TP_TRANSPORTER: inhibition of glyburide accumulation by novobiocin at a concentration of 200uM in BCRP-expressing MCF7-MX cells
Type: functional, cell-based

Activity: 3 fold
Structure (SMILES): CO[C@@H]1[C@@H](OC(N)=O)[C@@H](O)[C@H](Oc2ccc3c(O)c(NC(=O)c4ccc(O)c(CC=C(C)C)c4)c(=O)oc3c2C)OC1(C)C [NOVOBIOCIN]
